Data from patent publication US20240139185A1, “COMPOUNDS THAT PARTICIPATE IN COOPERATIVE BINDING AND USES THEREOF” (Revolution Medicines, Inc., priority 2018, published 2024).

Key:
cyclophilin A (CYPA) = cyclophilin A (CYPA) (Homo sapiens, UniProt P62937); assay: CYPA-compound binary complex formation by SPR; conditions: read-out: CYPA Binding Affinity
Protocol: In order to determine the affinity of compounds of the invention for cyclophilin A (CYPA), we employed surface plasmon resonance binding analysis using the following reagents, instruments and protocol as supplied by the instrument manufacturer.
Reagents and Instrument • 1. Instrument: Biacore S200 (GE Healthcare Life Sciences) • 2. Running buffer: 1×HBS-P+ (1×HBS supplemented with 0.05% Tween20), pH7.4, and 2% DMSO. • 3. Ligand: CypA-Avi • 4. Analyte: Serial dilution of WDB compounds from 50 μM to 0 μM, 2-fold dilution, 10 points (10 mM stock concentration). • 5. Sensor kit: Biotin CAPture Kit (BR28-9202-34, GE Healthcare Life Sciences) • 6. Regeneration buffer: 1 volume of 1 M NaOH and 3 volumes of 8 M guanidine hydrochloride (supplied with CAPture Kit, BR28-9202-34, GE Healthcare Life Sciences)
Experimental Procedure • 1. Capture of CAPreagent: 2 μl/min for 60 seconds. • 2. Immobilization of ligand CypA: Use Fc1 as the reference cell; immobilize CypA at 4 μg/ml using 5 μl/min flowrate on Fc2 (60s), Fc3 (80s) and Fc4 (80s), respectively. • 3. Binding of analytes: Inject WDB compound dilutions sequentially at 50 μl/min for association of 60 seconds. And then let it dissociates in buffer at 50 μl/min for 60 seconds. • 4. Regeneration: 2 injections of regeneration buffer at 30 μl/min for 60 seconds to regenerate the chip surface. • 5. Solvent correction: Run solvent correction at beginning and the end of the run. If run more than 6 compounds, add additional solvent correction every 6 compounds. • 6. Data fitting with built-in Biacore Evaluation Software: Steady-state fitting.

pERK in H358 cells = assay: pERK inhibition in H358 cells; conditions: read-out: Cellular pERK inhibition, 4 hours treatment
Protocol: H358 cells (5500 cells) derived from a human lung cancer were plated in a 96 well plate in media (100 uL, RPMI with 10% FBS). After 24 hours, cells were treated for 4 hours with compound or DMSO. Cells were washed twice with room temperature TBS (200 uL) and fixed for 20 minutes with 4% paraformaldehyde diluted with TBS (150 uL). Cells were washed four times for five minutes with 0.1% TritonX/TBS (150 uL) to permeabilize the membrane. Cells were incubated with TBS blocking buffer (100 uL) at room temperature for 60 minutes. Primary antibody (Phospho-p44/42 MAPK (Erk1/2) (Thr202/Tyr204) (D13.14.4E) XP® Rabbit mAb #4370, Cell Signaling Technology; 1:200) was added, and the cells were incubated overnight at 4 C. The cells were washed four times for five minutes with 0.1% Tween 20/TBS (150 uL). Secondary antibody (IRDye® 800CW Goat-Anti-Rabbit IgG, Li-Cor Biosciences; 1:1000) and DRAQ5™ (Invitrogen; 1:2000) was added, and the cells were incubated for 1 hour at room temperature. The cells were washed four times for five minutes with 0.1% Tween 20/TBS (150 uL) and scanned using the LICOR (700 and 800 nm).

[1] = target: BRAF-GTP-KRAS-G12C complex (Homo sapiens, UniProt P01116+P62937, G12C); assay: KRAS-BRAF complex disruption through competition with CYPA-compound by TR-FRET; conditions: read-out: BRAF-GTP-KRAS-G12C Disruption; biochemical BRAF-KRAS G12C-GTP disruption assay EC50, with CYPA
Protocol: In this example, TR-FRET was used to measure the compound-facilitated disruption of a KRAS-BRAF complex. A mixture of tagless Cyclophilin A, His6-KRAS G12C-GMP-PNP, and GST-BRAF RAS binding domain was added to a 384-well assay plate containing compounds of the invention and incubated for 3 hours. A mixture of Anti-His Eu-W1024 and anti-GST allophycocyanin was then added and the reaction was incubated for an additional 1.5 hours. TR-FRET signal was read on an EnVision microplate reader (Perkin Elmer, Ex 320 nm, Em 665/615 nm). Compounds that facilitate disruption of a KRAS_BRAF complex were identified as those eliciting a decrease in the TR-FRET ratio relative to DMSO control wells. To determine the presenter-dependence of the compound-mediated KRAS-BRAF complex disruption, Cyclophilin A was left out of the initial incubation (see Table 5). To determine G12C specificity of the compound-mediated KRAS-BRAF complex disruption, wild-type KRAS was used instead of G12C KRAS (see Table 5).
Reagents and Instrument • Tagless CYPA; 519 μM in PBS buffer, pH 7.4 • GST BRAF; 110 μM in PBS buffer, pH 7.4 • His6-KRASG12C-GMP-PNP; 50 μM in PBS buffer, pH 7.4 • His6-KRASWT-GMP-PNP; 40 μM in PBS buffer, pH 7.4 • Anti-His Eu-W1024 (LANCE® Eu-W1024; Perkin Elmer) • Anti-GST allophycocyanin (Anti-GST IgG conjugated to SureLight®-Allophycocyanin; Perkin Elmer; Product Number AD0059G) • Test compounds, 10 mM in 100% DMSO • EnVision (Perkin Elmer) • Combi MultiDrop liquid dispenser with 8-channel small volume cassette • 384-well ProxiPlate (black)
Experimental Protocol • 1. Use Mosquito to dispense 100 nL/well of compounds (varying concentration in […]) into 384-well black ProxiPlate to make assay-ready-plate (ARP). • 2. Make assay buffer containing 25 mM Hepes pH 7.3, 100 mM NaCl, 5 mM MgCl2, 0.05% BSA, and 0.002% Tween-20. • 3. Make PRE-MIX A: delivers final concentrations of 50 nM of His6-KRas G12C-GTP (1-169) and 500 nM of tagless CypA (1-165) in assay buffer. • a. For presenter dependence experiments, omit addition of tagless CypA • b. For G12C/wt specificity experiments, substitute His6-KRas WT-GTP (1-169) for His6-KRas G12C-GTP (1-169) • 4. Use MultiDrop Combi to dispense PRE-MIX A into ARP, 7 μl/well. Incubate 3 hr at room temperature. • 5. Make PRE-MIX B: delivers final concentrations of 10 nM of anti-His Eu-W1024 and 50 nM of anti-GST APC. • 6. Use MultiDrop Combi to dispense PRE-MIX B into ARP, 3 μl/well. Shake briefly on Combi and incubate 1.5 hr at room temperature. • 7. Read on EnVision (Ex: 320 nm; Em1: 615 nm; Em2: 665 nm). • 8. Data is processed using Dotmatics. Curves are fit using a 4-parameter non-linear fit to determine the EC50 value for formation of the ternary complex.

Structure (SMILES)	pKd (cyclophilin A (CYPA))	pIC50 (pERK in H358 cells)	pEC50 [1]
CC(C)[C@@H](C(=O)N[C@H]1Cc2cc(O)cc(c2)-c2ccc3c(c2)N(C[C@H](C)COC(=O)[C@@H]2CCCN(N2)C1=O)C(=O)C31CCOCC1)N(C)C(=O)C1CN(C(=O)CCl)C1	< 4.82	5.00 to 6.00	> 6.30
CC(C)[C@@H](C(=O)N[C@H]1Cc2cc(O)cc(c2)-c2ccc3c(c2)n(c(=O)n3C2CCOCC2)C[C@H](C)COC(=O)[C@@H]2CCCN(N2)C1=O)N(C)C(=O)C1CN(C(=O)CCl)C1	> 5.30	5.00 to 6.00	> 6.30
CC(C)[C@@H](C(=O)N[C@H]1Cc2cc(O)cc(c2)-c2ccc3c(CCC#N)cn(c3c2)CC(C)(C)COC(=O)[C@@H]2CCCN(N2)C1=O)N(C)C(=O)C1CN(C(=O)[C@@H](C)Cl)C1	> 5.30	< 5.00	5.30 to 6.30
CC1COC(=O)[C@@H]2CCCN(N2)C(=O)[C@@H](NC(=O)[C@H](C(C)C)N(C)C(=O)C2CN(C(=O)CCl)C2)Cc2cc(O)cc(c2)-c2ccc3c(C#N)cn(c3c2)C1 (single isomer, unassigned) [Compound 88]	4.82 to 5.30	5.00 to 6.00	> 6.30
CC(C)[C@@H](C(=O)N[C@H]1Cc2cc(O)cc(c2)-c2ccc3c(-c4ccccc4)cn(c3c2)C[C@H](C)COC(=O)[C@@H]2CCCN(N2)C1=O)N(C)C(=O)C1CN(C(=O)CCl)C1	< 4.82	5.00 to 6.00	> 6.30
COc1ccc(C#N)c(-c2cn3c4cc(ccc24)-c2cc(O)cc(c2)C[C@H](NC(=O)[C@H](C(C)C)N(C)C(=O)C2CN(C(=O)[C@@H](C)Cl)C2)C(=O)N2CCC[C@H](N2)C(=O)OCC(C)(C)C3)c1	4.82 to 5.30	< 5.00	5.30 to 6.30
COc1nn2c3cc(ccc13)-c1cc(O)cc(c1)C[C@H](NC(=O)[C@H](C(C)C)N(C)C(=O)C1CN(C(=O)CCl)C1)C(=O)N1CCC[C@H](N1)C(=O)OCC(C)(C)C2	4.82 to 5.30	> 6.00	> 6.30
CON=C(c1cn2c3cc(ccc13)-c1cc(O)cc(c1)C[C@H](NC(=O)[C@H](C(C)C)N(C)C(=O)C1CN(C(=O)CCl)C1)C(=O)N1CCC[C@H](N1)C(=O)OCC(C)(C)C2)C1CC1	< 4.82	5.00 to 6.00	> 6.30
CC(C)[C@@H](C(=O)N[C@H]1Cc2cc(O)cc(c2)-c2ccc3c(C#N)nn(c3c2)CC(C)(C)COC(=O)[C@@H]2CCCN(N2)C1=O)N(C)C(=O)C1CN(C(=O)CCl)C1	4.82 to 5.30	5.00 to 6.00	> 6.30
C=CC(=O)N1CC[C@H](C(=O)N(C)[C@H](C(=O)N[C@H]2Cc3cc(O)cc(c3)-c3ccc4c(c3)N(CC(C)(C)COC(=O)[C@@H]3CCCN(N3)C2=O)CC42CCCOC2)C(C)C)C1 (stereo partly drawn)	> 5.30	> 6.00	5.30 to 6.30
CC(C)[C@@H](C(=O)N[C@H]1Cc2cc(O)cc(c2)-c2ccc3c(-c4cccc(F)c4C#N)cn(c3c2)CC(C)(C)COC(=O)[C@@H]2CCCN(N2)C1=O)N(C)C(=O)C1CN(C(=O)CCl)C1	4.82 to 5.30	> 6.00	> 6.30
CC(C)[C@@H](C(=O)N[C@H]1Cc2cc(O)cc(c2)-c2ccc3c(c2)N(CC3C(C)(C)C#N)C[C@H](C)COC(=O)[C@@H]2CCCN(N2)C1=O)N(C)C(=O)C1CN(C(=O)CCl)C1 (single isomer, unassigned) [249]	> 5.30	< 5.00	5.30 to 6.30
CC(C)[C@@H](C(=O)N[C@H]1Cc2cc(O)cc(c2)-c2ccc3c(c2)N(C[C@H](C)COC(=O)[C@@H]2CCCN(N2)C1=O)CC3(C)Cn1cccn1)N(C)C(=O)C1CN(C(=O)[C@@H](C)Cl)C1 (single isomer, unassigned)	> 5.30	< 5.00	
C[C@@H](Cl)C(=O)N1CC(C(=O)N(C)[C@H](C(=O)N[C@H]2Cc3cc(O)cc(c3)-c3ccc4c(C(C)(C)C#N)cn(c4c3)CC(C)(C)COC(=O)[C@@H]3CCCN(N3)C2=O)C2CC2)C1	4.82 to 5.30	< 5.00	
C=CC(=O)N1CCC2(CCN([C@H](C(=O)N[C@H]3Cc4cc(O)cc(c4)-c4ccc5c(C(C)(C)C#N)cn(c5c4)CC(C)(C)COC(=O)[C@@H]4CCCN(N4)C3=O)C(C)C)C2=O)C1 (stereo partly drawn)	4.82 to 5.30	5.00 to 6.00	
CC(C)[C@@H](C(=O)N[C@H]1Cc2cc(O)cc(c2)-c2ccc3c(C(C)(C)C#N)cn(c3c2)CC(C)(C)COC(=O)[C@@H]2CCCN(N2)C1=O)N1CCC2(CCN(C(=O)CCl)C2)C1=O (stereo partly drawn)	4.82 to 5.30	> 6.00	
C=CC(=O)N1CCC(F)(C(=O)N(C)[C@H](C(=O)N[C@H]2Cc3cc(O)cc(c3)-c3ccc4c(C(C)(C)C#N)cn(c4c3)CC(C)(C)COC(=O)[C@@H]3CCCN(N3)C2=O)C(C)C)C1 (stereo partly drawn)	4.82 to 5.30	< 5.00	
C=CC(=O)N1CCC(C(=O)N(C)[C@H](C(=O)N[C@H]2Cc3cc(O)cc(c3)-c3ccc4c(C(C)(C#N)C5CCOCC5)cn(c4c3)CC(C)(C)COC(=O)[C@@H]3CCCN(N3)C2=O)C(C)C)C1 (stereo partly drawn)	4.82 to 5.30	< 5.00	
CC(C)[C@@H](C(=O)N[C@H]1Cc2cc(O)cc(c2)-c2ccc3c(-c4ccc5c(c4)C(=O)NC5)cn(c3c2)CC(C)(C)COC(=O)[C@@H]2CCCN(N2)C1=O)N(C)C(=O)C1CN(C(=O)[C@@H](C)Cl)C1	> 5.30	< 5.00	
CC(C)[C@@H](C(=O)N[C@H]1Cc2cc(O)cc(c2)-c2ccc3c(-c4cccc5c4CNC5=O)cn(c3c2)CC(C)(C)COC(=O)[C@@H]2CCCN(N2)C1=O)N(C)C(=O)C1CN(C(=O)[C@@H](C)Cl)C1	> 5.30	< 5.00	
COCC1(C)CN2C[C@H](C)COC(=O)[C@@H]3CCCN(N3)C(=O)[C@@H](NC(=O)[C@H](C(C)C)N(C)C(=O)C3CN(C(=O)CCl)C3)Cc3cc(O)cc(c3)-c3ccc1c2c3 (stereo partly drawn)	> 5.30	> 6.00	

pEC50, pIC50, pKd: −log10 of the molar value.
